Values quoted from earlier work, collected in article PMC10179972, “New Hybrid Tetrahydropyrrolo[3,2,1-ij]quinolin-1-ylidene-2-thioxothiazolidin-4-ones as New Inhibitors of Factor Xa and Factor XIa: Design, Synthesis, and In Silico and Experimental Evaluation” (Molecules, 2023).

The chains behind the UniProt entries cited, without tags or fusion partners. Residues count along the entry.
UniProt P03951, 388-625 limits assumed: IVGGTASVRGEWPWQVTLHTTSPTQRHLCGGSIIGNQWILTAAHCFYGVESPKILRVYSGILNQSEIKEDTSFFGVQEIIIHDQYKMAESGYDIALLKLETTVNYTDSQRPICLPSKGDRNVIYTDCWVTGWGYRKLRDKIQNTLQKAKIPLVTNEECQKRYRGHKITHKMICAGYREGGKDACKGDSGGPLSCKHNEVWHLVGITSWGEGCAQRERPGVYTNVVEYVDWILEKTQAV
UniProt P03951, 19-387 partner limits assumed: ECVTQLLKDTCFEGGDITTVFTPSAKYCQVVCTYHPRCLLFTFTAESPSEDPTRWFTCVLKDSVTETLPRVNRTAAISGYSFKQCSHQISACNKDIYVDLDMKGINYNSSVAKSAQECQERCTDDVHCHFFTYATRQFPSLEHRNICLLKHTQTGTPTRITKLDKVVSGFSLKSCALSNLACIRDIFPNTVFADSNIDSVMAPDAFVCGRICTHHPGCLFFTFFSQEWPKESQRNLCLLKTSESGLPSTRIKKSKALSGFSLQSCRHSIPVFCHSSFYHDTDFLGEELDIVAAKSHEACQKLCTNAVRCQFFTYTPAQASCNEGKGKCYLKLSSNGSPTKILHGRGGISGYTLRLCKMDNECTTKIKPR

Molecular target: factor XIa (Homo sapiens, UniProt P03951)
Conditions: read-out: Ki, factor XIa (Table S2, values in brackets); known actives used in validation of docking protocol; ref [1]-[6] of Table S2, column Ligand ID; cited from earlier work

Nc1ccc2c(CNC(=O)[C@H](Cc3ccccc3)NC(=O)c3ccc4[nH]c(=O)cc(O)c4c3)cccc2n1 (single isomer, unassigned)
Ki: 60 nM
